Calls of active or inactive are those of the source.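 The calls were made as follows: active = a tumor-causing dose value with its tumor site reported for any sex and species group of a rodent or other animal cancer study; inconclusive = only studies judged inadequate by the national testing program; inactive = tested in at least one study, none positive.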 Entries that show only a call come without a potency.
Experiment: DSSTox (CPDBAS) Carcinogenic Potency Database Summary SingleCellCall Results
Details: animal chronic carcinogenicity bioassays, CPDB summary call
Source text: The Carcinogenic Potency Database (CPDB) is a unique and widely used international resource of the results of over 6500 chronic, long-term animal cancer tests on over 1500 chemical substances. The CPDB provides easy access to the bioassay literature, with qualitative and quantitative analyses of both positive and negative experiments that have been published over the past 50 years in the general literature and by the National Cancer Institute/National Toxicology Program. The CPDB standardizes the diverse literature of cancer bioassays that vary widely in protocol, histopathological examination and nomenclature, and in the published author's choices of what information to provide in their papers. Results are reported in the CPDB for tests in rats, mice, hamsters, dogs, and nonhuman primates, and are based on the most positive result among all experiments for each sex-species. The DSSTox CPDBAS (all species) file incorporates data from the CPDB Summary Tables for the full list of over 1500 chemical substances tested in at least one species. A summary SingleCellCall, based on experimental bioassay results of one or more species, is provided for the entire DSSTox CPDBAS file (see Source URL).
An assignment of categorical carcinogenic activity based on minimal evidence for or against activity. […]

SMILES	outcome
O=[N+]([O-])C(Cl)(Cl)Cl	inactive
CN(CCCl)CCCl	active
